Test results taken from patent US11400130B2, “Inhibitors for proliferating cell nuclear antigen and uses” (Purdue Research Foundation, priority 2015, dated 2022).

Sequences of proteins named here, by UniProt entry; tags and fusion partners are left off. A line that says so, or that is headed by a name, gives the form on record, which may keep a tag or linker. Residues count along the entry.
UniProt P12004, 1-261 with tags or gaps: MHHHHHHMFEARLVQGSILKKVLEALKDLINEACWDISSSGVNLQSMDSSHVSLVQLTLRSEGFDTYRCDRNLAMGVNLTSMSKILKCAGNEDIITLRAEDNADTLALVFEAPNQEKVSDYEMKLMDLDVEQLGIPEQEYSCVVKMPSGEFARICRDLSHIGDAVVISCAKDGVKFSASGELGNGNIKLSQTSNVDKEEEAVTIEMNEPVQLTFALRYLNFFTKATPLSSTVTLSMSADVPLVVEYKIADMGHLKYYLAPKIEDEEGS

Biological target: PCNA (Homo sapiens, UniProt P12004)
Assay: Fluorescence polarization competition assay (displacement of FAM-PL from His-tagged PCNA)
Settings: for Ki: calculated from IC50 using equation 5 (modified Cheng-Prusoff), 95% confidence interval around the mean; for IC50: disruption of PCNA / FAM-PL binding, values are 95% confidence interval around the mean

NCC(=O)N(CC(=O)N(CC(N)=O)Cc1ccc(CO)cc1)Cc1ccc2c(c1)OCO2
Ki: 0.745 µM
IC50: 7.74 µM

NCCCCNCC(=O)N(CC(=O)N(CC(N)=O)Cc1ccc(CO)cc1)Cc1ccc2c(c1)OCO2
Ki: 0.186 µM
IC50: 1.94 µM

NC(=O)CN(Cc1ccc2c(c1)OCO2)C(=O)CNC(=O)CN[C@H](CO)Cc1cc(I)c(Oc2ccc(O)cc2)c(I)c1
Ki: 1.56 µM
IC50: 16.2 µM

NC(=O)CC[C@H](NC(=O)CN[C@H](CO)Cc1cc(I)c(Oc2ccc(O)cc2)c(I)c1)C(N)=O
Ki: 0.339 µM
IC50: 3.52 µM

NC(=O)C[C@H](NC(=O)CN[C@H](CO)Cc1cc(I)c(Oc2ccc(O)cc2)c(I)c1)C(N)=O
Ki: 0.693 µM
IC50: 7.2 µM
